The test system of one assay is rat. Kind of assay: Randall Selitto test in rats (Carrageenin-induced inflammatory pain). The assay is classed as in vivo.
Assay [1] deals with male albino rats (Sprague Dawley).

Read-outs that look alike come from different tables or passages of the source.

As to `CN(C)[C@]1(c2ccccc2)CC[C@]2(CC1)OCCc1c3cc(F)ccc3[nH]c12`, the “timepoint of peak effect p. appl.” value in the assay on rat (applied alone, first ingredient i.v., second ingredient i.p.) stood at 15 min. Also, in the assay on rat (i.v., 15 min p. appl. (peak effect)), the “ED50 (95% CI), applied alone” value is 3.31 (3.06-3.56) μg/kg. The “% MPE (Maximum possible effect), single administration” value amounted to 12.2 ± 2.69 % MPE in assay [1] (0.0046 mg/kg i.v., 30 min. post administration); 10.6 ± 3.51 % MPE in assay [1] (0.0046 mg/kg i.v., 60 min. post administration); 2.88 ± 2.27 % MPE in assay [1] (0.0046 mg/kg i.v., 90 min. post administration); 26.0 ± 5.35 % MPE in assay [1] (0.0068 mg/kg i.v., 30 min. post administration); 12.2 ± 2.56 % MPE in assay [1] (0.0068 mg/kg i.v., 60 min. post administration); 4.64 ± 1.14 % MPE in assay [1] (0.0068 mg/kg i.v., 90 min. post administration). The “% MPE (Maximum possible effect), single administration” value is reported as 43.2 ± 2.61 % MPE in assay [1] (0.01 mg/kg i.v., 30 min. post administration); 34.1 ± 4.88 % MPE in assay [1] (0.01 mg/kg i.v., 60 min. post administration); 7.7 ± 2.23 % MPE in assay [1] (0.01 mg/kg i.v., 90 min. post administration).

(Values after patent US20130310371A1 (priority 2012, published 2013).)
